Sequences of proteins named here, by UniProt entry; tags and fusion partners are left off.
UniProt P14842, whole entry: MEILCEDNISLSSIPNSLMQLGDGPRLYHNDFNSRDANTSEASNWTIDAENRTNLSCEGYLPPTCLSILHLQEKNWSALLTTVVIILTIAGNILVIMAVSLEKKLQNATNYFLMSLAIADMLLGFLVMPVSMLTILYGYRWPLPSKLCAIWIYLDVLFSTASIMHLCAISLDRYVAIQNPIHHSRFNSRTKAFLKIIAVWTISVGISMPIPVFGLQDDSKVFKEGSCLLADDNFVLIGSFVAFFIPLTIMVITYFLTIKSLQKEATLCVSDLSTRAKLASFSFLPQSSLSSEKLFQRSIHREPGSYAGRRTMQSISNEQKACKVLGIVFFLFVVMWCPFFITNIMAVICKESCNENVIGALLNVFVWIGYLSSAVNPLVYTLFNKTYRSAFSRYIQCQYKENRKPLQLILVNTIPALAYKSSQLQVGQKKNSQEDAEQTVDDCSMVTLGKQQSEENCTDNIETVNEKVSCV

According to ChEMBL document CHEMBL1134366, “Enantiospecific synthesis and pharmacological evaluation of a series of super-potent, conformationally restricted 5-HT(2A/2C) receptor agonists” (J Med Chem, 2001):

Columns and labels:
[1] = target: T1, 5-hydroxytryptamine receptor 2C (Rattus norvegicus, UniProt P08909); assay: Binding affinity at cloned rat 5-hydroxytryptamine 2C receptor using [3H]DOI as radioligand
T1 sequence (P08909 whole entry): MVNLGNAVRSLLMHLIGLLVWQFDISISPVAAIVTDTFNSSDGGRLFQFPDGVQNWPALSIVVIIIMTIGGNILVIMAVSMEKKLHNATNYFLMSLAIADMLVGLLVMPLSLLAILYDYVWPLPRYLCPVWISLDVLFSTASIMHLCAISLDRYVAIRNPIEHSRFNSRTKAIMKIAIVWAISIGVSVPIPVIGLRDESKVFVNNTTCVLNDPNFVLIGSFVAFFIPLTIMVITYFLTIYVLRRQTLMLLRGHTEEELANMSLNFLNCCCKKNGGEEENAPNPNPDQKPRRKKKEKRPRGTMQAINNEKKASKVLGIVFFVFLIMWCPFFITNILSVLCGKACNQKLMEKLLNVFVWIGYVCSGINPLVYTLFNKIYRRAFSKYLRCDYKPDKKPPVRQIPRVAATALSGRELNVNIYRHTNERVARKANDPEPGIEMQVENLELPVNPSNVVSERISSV
How it was run: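 Competition binding using harvested, frozen NIH-3T3 cells stably expressing rat 5-HT2C. Buffer 50 mM Tris, 0.5 mM EDTA, 10 mM MgCl2, pH 7.4. Incubated 60 min at 25 °C, then rapid filtration onto polyethylenimine-treated GF/B filters and scintillation counting. Nonspecific binding defined with 10 µM mianserin in the saturation assays.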

[2] = target: T2, 5-hydroxytryptamine receptor 2A (Rattus norvegicus, UniProt P14842); assay: Ability to stimulate phosphoinositide hydrolysis in NIH3T3 cells expressing the 5-hydroxytryptamine 2A receptor; format: cell-based
[3] = target: T2, 5-hydroxytryptamine receptor 2A; assay: Binding affinity at cloned rat 5-hydroxytryptamine 2A receptor using [3H]DOB as radioligand
How it was run: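 Competition binding using harvested, frozen NIH-3T3 cells stably expressing rat 5-HT2A, serum-starved 5 h before harvest. 1.0 nM [3H]DOB in 50 mM Tris, 0.5 mM EDTA, 10 mM MgCl2, pH 7.4. Incubated 60 min at 25 °C, then rapid filtration onto GF/B filters pre-soaked in 0.3% polyethylenimine, and scintillation counting. Nonspecific binding defined with 10 µM cinanserin in the saturation assays.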

COc1cc(CC(C)N)c(OC)cc1Br (stereo not drawn) [BROLAMFETAMINE]
Ki [1]: 2.8 nM | EC50 [2]: 72 nM | Ki [3]: 2.2 nM
